Patent US7687623B2, “Pyrrolobenzodiazepines and heterocyclic carboxamide derivatives as follicle stimulating hormone receptor (FSH-R) antagonists” (Wyeth LLC, priority 2005, dated 2010)

Protein sequences, listed by entry. Tags and fused reporters are not part of them. Residues count along the entry.
UniProt P16473, 21-764: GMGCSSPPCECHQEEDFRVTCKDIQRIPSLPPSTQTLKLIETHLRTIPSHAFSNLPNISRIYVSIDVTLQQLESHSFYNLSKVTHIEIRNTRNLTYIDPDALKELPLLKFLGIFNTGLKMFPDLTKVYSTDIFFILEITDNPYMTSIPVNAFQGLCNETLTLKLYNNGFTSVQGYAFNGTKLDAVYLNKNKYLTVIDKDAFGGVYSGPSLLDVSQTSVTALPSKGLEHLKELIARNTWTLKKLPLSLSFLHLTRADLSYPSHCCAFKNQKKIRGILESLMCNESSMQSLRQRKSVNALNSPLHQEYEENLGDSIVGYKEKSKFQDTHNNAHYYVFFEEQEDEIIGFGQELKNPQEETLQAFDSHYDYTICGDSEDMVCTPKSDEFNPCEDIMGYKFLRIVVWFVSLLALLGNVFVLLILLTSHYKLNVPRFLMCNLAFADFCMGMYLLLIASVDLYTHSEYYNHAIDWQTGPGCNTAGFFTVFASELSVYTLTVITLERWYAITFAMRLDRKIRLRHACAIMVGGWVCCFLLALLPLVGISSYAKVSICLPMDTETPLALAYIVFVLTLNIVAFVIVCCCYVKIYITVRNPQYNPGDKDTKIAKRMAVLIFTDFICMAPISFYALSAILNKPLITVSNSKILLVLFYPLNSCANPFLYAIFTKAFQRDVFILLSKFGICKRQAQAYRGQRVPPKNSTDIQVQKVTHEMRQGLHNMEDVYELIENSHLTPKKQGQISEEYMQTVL

Experiments:
Assay type in all cases: cell-based
human FSH receptor = target: T1, human FSH receptor (Homo sapiens, UniProt P23945); assay: FSH receptor-dependent CRE-luciferase reporter gene assay (CHO FSH-R 6CRE-Luc, 1D7 cells); settings: positive control
T1 construct: host or cells: CHO-K1 (CHO FSH-R 6CRE-Luc, 1D7 cells)
T1 sequence (P23945 18-695): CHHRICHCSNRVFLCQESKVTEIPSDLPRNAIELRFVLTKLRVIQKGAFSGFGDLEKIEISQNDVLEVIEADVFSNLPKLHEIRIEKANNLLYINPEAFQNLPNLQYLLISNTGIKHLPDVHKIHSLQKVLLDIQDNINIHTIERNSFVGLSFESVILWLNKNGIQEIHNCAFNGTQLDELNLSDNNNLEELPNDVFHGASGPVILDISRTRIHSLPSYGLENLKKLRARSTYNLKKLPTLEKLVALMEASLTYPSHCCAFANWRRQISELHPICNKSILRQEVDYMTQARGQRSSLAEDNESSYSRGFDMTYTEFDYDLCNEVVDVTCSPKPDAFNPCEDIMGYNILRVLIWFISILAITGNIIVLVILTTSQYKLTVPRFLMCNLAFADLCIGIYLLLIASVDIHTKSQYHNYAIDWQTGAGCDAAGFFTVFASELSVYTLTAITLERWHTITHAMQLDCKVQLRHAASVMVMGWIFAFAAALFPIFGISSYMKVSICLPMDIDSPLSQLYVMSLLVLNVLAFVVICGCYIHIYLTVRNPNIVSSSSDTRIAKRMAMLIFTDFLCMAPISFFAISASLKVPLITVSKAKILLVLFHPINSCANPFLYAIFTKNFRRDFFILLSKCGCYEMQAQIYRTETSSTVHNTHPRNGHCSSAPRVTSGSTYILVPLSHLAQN
Method: This procedure was used to identify and determine the relative potencies of human FSH receptor antagonists using a Chinese hamster ovarian cell line that stably produces the human FSH receptor and a luciferase reporter gene regulated by cAMP response elements.
COMPOUND VEHICLE: Stock compounds were solubilized in an appropriate vehicle, preferably phosphate buffered saline (PBS) or dimethyl sulfoxide (DMSO), at 30 mM. The compounds were subsequently diluted in DMSO to working dilutions of 1 and 20 or 30 mM for 2-dose testing format and 1 μM-10 mM for dose-response format. The DMSO dilutions were diluted 500-fold in sterile growth medium [D-MEM/F-12 (GIBCO/BRL; Grand Island N.Y.) containing 15 mM HEPES, 2 mM 1-glutamine, pyridoxine hydrochloride, phenol red and 5% FetalClone II (HyClone Laboratories, Inc; Logan, Utah), 0.2% DMSO, 100 units penicillin G/ml, and 100 μg streptomycin sulfate/ml (GIBCO/BRL)]. The concentration of the vehicle in each of the compound dilutions was the same. POSITIVE CONTROLS: Purified human FSH (>98%) was purchased from Cortex Biochem, Inc. (San Leandro, Calif.) and a known FSH-R thiazolidinone antagonist was obtained from the Wyeth Research compound repository. Preparation of Cells […]
Background luminescence was measured for each well prior to the addition of the LucScreen reagent. […]
Luciferase activity is expressed as relative light units/sec/well. […]

hFSH-R = target: T2, hFSH-R (Homo sapiens, UniProt P23945); assay: cAMP accumulation (RIA) in CHO-3D2 cells (hFSH-R), hFSH-induced; settings: agonist mode, four-parameter logistic equation
T2 construct: expressed in transfected cells; host or cells: CHO-3D2 cells
T2 sequence (P23945 18-695): T1 sequence (P23945 18-695)
Method: This assay was used to verify in vitro potency, efficacy, selectivity and receptor dependency of hits found to inhibit an FSH-R-CRE-luciferase driven reporter.
COMPOUND VEHICLE: Stock compounds were solubilized in 100% DMSO (Sigma Chemical Co.) at a concentration of 30 mM. The compounds were subsequently diluted in sterile assay medium consisting of Opti-MEM® I (Life Technologies) with 0.1% (w/v) BSA (Sigma), prior to use in the bio-assay. The final concentration of DMSO in the assay is 0.1%.
The day prior to the experiment, CHO-3D2 cells (hFSH-R)(1) were plated into 96-well tissue culture plates (Falcon) at a density of 30,000 cells/well in DMEM/F12 medium (Life Technologies) supplemented with 5% Fetal Clone II (Hyclone), 2 mM L-glutamine (Life Technologies) and penicillin/streptomycin (100 U/ml, Life Technologies). Plated cells are then incubated at 37° C. in a humidified 5% CO2/95% air, atmosphere.
On the day of the assay, cells were washed three times with 100 μl/well of assay medium consisting of Opti-MEM® I (Life Technologies) with 0.1% (w/v) BSA (Sigma). Medium was removed and 100 μl of assay medium was added to each well. […] Reactions were terminated by the addition of 50 μl of 0.2N hydrochloric acid to each well and cAMP-accumulation was measured by radioimmunoassay (RIA) using a commercially available kit (Amersham).
All test compounds were evaluated in a dose-response paradigm ranging from about 0.01 to about 30 μM. Controls and test compounds were evaluated in quadruplicate in a 96-well format. […] The ability of the compounds to inhibit the cAMP-accumulation induced by hFSH was evaluated by RIA.
In every assay the EC20 concentration was calculated and only those experiments in which the EC20 concentrations were equal to 1.85±0.4 ng/mL were accepted as valid. […]
cAMP accumulation is expressed as fmol/ml. cAMP accumulation in the agonist mode, or the ability of the compound to inhibit hFSH-, hTSH-, or forskolin-induced cAMP-accumulation in the antagonist mode, was compared to the appropriate negative and positive controls. […]

hTSH-R = target: T3, hTSH-R (Homo sapiens, UniProt P16473); assay: Selectivity studies: cAMP accumulation in CHO-25 (hTSH-R) cells
T3 construct: expressed in transfected cells; host or cells: CHO-25 cells
Method: cAMP accumulation assays using CHO-25 (hTSH-R) cells were performed as described above for the CHO-3D2 cells with the following exceptions: CHO-25 cells were plated at a density of 50,000 cells/well (2). All test compounds were evaluated in a dose-response paradigm ranging from about 0.01 to 30 μM. Controls and test compounds were evaluated in quadruplicate. Cells were treated with vehicle, hTSH at EC20 (5 nM; hTSH>98% pure, Cortex Biochem, Inc.), or the compounds in the presence or absence of the hTSH at its EC20 concentration. The ability of the compounds to inhibit cAMP-accumulation induced by hTSH was evaluated by RIA.
Along with the test compounds, hTSH was also run as a positive control in the agonist mode using concentrations ranging from about 0.01 μM-1000 μM.
cAMP accumulation is expressed as fmol/ml. cAMP accumulation in the agonist mode, or the ability of the compound to inhibit hFSH-, hTSH-, or forskolin-induced cAMP-accumulation in the antagonist mode, was compared to the appropriate negative and positive controls. Data were analyzed by one-way analysis of variance and significant differences between treatments and control determined by Least Significant Difference test.

Row | EC50, luciferase reporter (human FSH receptor) [ng/mL] | EC100, luciferase reporter (human FSH receptor) [ng/mL] | apparent EC20, cAMP accumulation (hFSH-R) [ng/mL] | apparent EC50, cAMP accumulation (hFSH-R) [ng/mL] | apparent EC80, cAMP accumulation (hFSH-R) [ng/mL] | EC20, cAMP accumulation (hTSH-R) [nM] | Substance
1 | 0.4 | 1000 | 1.85 | 6.03 | 22.55 |  | hFSH: Purified human FSH (>98%) purchased from Cortex Biochem, Inc.; positive control [reference compound]
2 |  |  |  |  |  | 5 | hTSH: hTSH >98% pure, Cortex Biochem, Inc.; positive control in selectivity studies
